# Sampled rows, rich in hits. Any-hit rate of the full collection: about 1.8%.
# E-selectin induc: E-selectin induction on HUVECs; P16581; HUVEC E-selectin immunofluorescence imaging; normalized: neutral wells 0, TNF-alpha wells 100; activation, % at 7.58 µM; actives 0.37% (n = 260,000); AID 686992;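 active means mean E-selectin-positive cell signal at least 10% of the positive control, reached in at least 60% of replicates, without over 20% cell loss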
#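 Assay system: HUVEC, human umbilical vein endothelial cells / Amount: 3,000 HUVEC/well / Controls: TNF-alpha positive control, DMSO neutral control / Compound dosing: single concentration / Medium: EGM-2 over gelatin coat / Evaluation: percent E-selectin-positive cells / Signal: immunofluorescence imaging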
# SIRT5 block: inhibitors of human sirtuin-5 desuccinylase. Purified SirT5, succinyl-peptide AMC, trypsin-coupled fluorescence. actives 1.1% (n = 330,000). inhibition, % at 15 µM; in the data active means inhibition above about 15%
# Yeast UUG start: modulators of start codon recognition fidelity in yeast; AID 602363; activity score, % at 18.7 µM; S. cerevisiae UUG-firefly luciferase reporter, luminescence/redox ratio; 0.13% of 350,000 active;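 active = replicate mean at a twofold rise or more, about +100% in these data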;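 note: firefly luciferase made from a UUG start codon reports start codon fidelity; reporter light over untreated wells divided by growth signal over untreated wells; some hits fall short of that in this replicate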
# RAD52 anneal inh: inhibitors of human RAD52 DNA annealing | recombinant RAD52 DNA annealing, FRET fluorescence | inhibition, % at 18.7 µM | actives 0.46% (n = 360,000) | AID 651710;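 active means every replicate showing at least 50% inhibition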
# RAD54 branch: blocks human RAD54 Holliday junction branch migration; FAM/BHQ fluorescence; inhibition, % at 10.4 µM; actives 0.14% (n = 360,000); AID 602329;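 active means mean normalized replicate activity at least 40 and at least half of replicates scoring 40 or more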;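 further: 0% = median of neutral control wells and 100% = median of positive control wells; inhibitors cause a drop in the FAM fluorescence signal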
# AF4-AF9 inh: blocks AF4 peptide binding to human AF9; P42568; AlphaScreen, biotin-AF4 peptide binding to FLAG-AF9; inhibition, % at 10 µM; actives 0.47% (n = 350,000);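 active means every replicate reaching a set inhibition limit, whatever the replicate mean, cut at about 25% in these data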;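 further: 0% = plate neutral control median and 100% = total signal loss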
# * = called active by the depositor; nt = not tested or not shown.
# The line under a structure holds: RAD54 branch, AF4-AF9 inh, Yeast UUG start, RAD52 anneal inh, E-selectin induc, SIRT5 block
1. C/C=C/c1ccc2c(c1)O[C@H](CN(C)CC1CCCC1)[C@@H](C)CN([C@H](C)CO)S2(=O)=O
 : -3, 7, -4, 14, 1, 15*
2. C/C=C/c1ccc2c(c1)O[C@H](CN(C)Cc1cccc(F)c1)[C@@H](C)CN([C@@H](C)CO)S2(=O)=O
 : -2, 5, -5, 2, 1, 17*
3. C[C@@H]1CN([C@H](C)CO)S(=O)(=O)c2ccc(/C=C/c3ccccc3)cc2O[C@H]1CN(C)Cc1ccccc1
 : 3, -2, nt, 10, 0, 23*
4. C/C=C/c1ccc2c(c1)O[C@H](CN(C)Cc1ccccc1)[C@@H](C)CN([C@@H](C)CO)S2(=O)=O
 : -1, 10, -10, 11, 2, 18*
5. C/C=C/c1ccc2c(c1)O[C@@H](CN(C)Cc1ccccc1)[C@@H](C)CN([C@@H](C)CO)S2(=O)=O
 : -2, 13, -8, 2, 0, 2
6. C[C@H]1CN([C@@H](C)CO)S(=O)(=O)c2ccc(/C=C/c3ccccc3)cc2O[C@H]1CN(C)CC1CC1
 : -3, 29*, 4, 8, 0, 4
7. C[C@@H]1CN([C@@H](C)CO)S(=O)(=O)c2ccc(C#CC3CCCC3)cc2O[C@@H]1CN(C)Cc1cccnc1
 : 4, 6, 0, 0, -3, 9
8. C[C@H](CO)N1C[C@H](C)[C@H](CN(C)Cc2cncnc2)Oc2cc(C#CC3CCCC3)ccc2S1(=O)=O
 : 1, 6, nt, 5, 0, 17*
9. C[C@H]1CN([C@@H](C)CO)S(=O)(=O)c2ccc(C#CC3CCCC3)cc2O[C@@H]1CN(C)Cc1cccnc1
 : -1, 7, -1, 5, -2, 17*
10. C[C@H]1CN([C@@H](C)CO)S(=O)(=O)c2ccc(C#CC3CCCCC3)cc2O[C@@H]1CN(C)Cc1cccnc1
 : -1, 7, -5, 22, nt, 18*

# One compound at a time (already shown).
# C[C@@H]1CN([C@@H](C)CO)S(=O)(=O)c2ccc(C#CC3CCCC3)cc2O[C@@H]1CN(C)Cc1cccnc1 as listed: RAD54 branch: 4; AF4-AF9 inh: 6; Yeast UUG start: 0; RAD52 anneal inh: 0; E-selectin induc: -3; SIRT5 block: 9
# C[C@H]1CN([C@@H](C)CO)S(=O)(=O)c2ccc(C#CC3CCCC3)cc2O[C@@H]1CN(C)Cc1cccnc1 as listed: RAD54 branch: -1; AF4-AF9 inh: 7; Yeast UUG start: -1; RAD52 anneal inh: 5; E-selectin induc: -2; SIRT5 block: 17*

# Next entries:
# The line under a structure holds: RAD54 branch, AF4-AF9 inh, Yeast UUG start, RAD52 anneal inh, E-selectin induc, SIRT5 block
11. C[C@@H]1CN([C@H](C)CO)S(=O)(=O)c2ccc(C#CC3CCCC3)cc2O[C@H]1CN(C)Cc1cncnc1
 : nt, nt, nt, nt, 3, nt
12. COCCNC(=O)CN1C(=O)NC2(CCCCCC2)C1=O
 : nt, -4, nt, 4, nt, 17*
13. CC1CCC(NC(=O)CN2C(=O)NC3(CCCCCC3)C2=O)CC1 (stereo not given)
 : -2, -1, -11, -9, -3, 16*
14. COc1ccccc1OCCNC(=O)CN1C(=O)NC2(CCCCC2)C1=O
 : 2, 0, 1, -11, nt, 0
15. COC(=O)/C(=C\Nc1ccc(Oc2ccccc2OC(C)C)nc1)NC(=O)c1ccccc1
 : nt, 2, nt, -23, nt, -3
16. Cc1ccc(CNC(=O)CSCc2ccccc2)cc1
 : 0, -2, -12, -16, nt, -6
17. Cc1cccc(CSCC(=O)NCc2ccc(S(N)(=O)=O)cc2)c1
 : 4, -2, -4, 5, 0, 15*
18. C[C@H](CO)N1C[C@H](C)[C@H](CN(C)Cc2ccccc2)OCc2ccccc2-c2ccccc2C1=O
 : 2, 2, -5, 13, 0, 4
19. C[C@H]1CN([C@@H](C)CO)C(=O)c2ccccc2-c2ccccc2CO[C@@H]1CN(C)Cc1ccc(F)cc1
 : 1, 2, nt, 21, 0, 6
20. C[C@H]1CN([C@@H](C)CO)C(=O)c2ccccc2-c2ccccc2CO[C@H]1CN(C)Cc1ccc(F)cc1
 : -14, 2, nt, 8, 0, 23*

# Remaining list, next part.
# The line under a structure holds: RAD54 branch, AF4-AF9 inh, Yeast UUG start, RAD52 anneal inh, E-selectin induc, SIRT5 block
21. C[C@H](CO)N1C[C@H](C)[C@H](CN(C)Cc2ccc(-c3ccccc3)cc2)OCc2ccccc2-c2ccccc2C1=O
 : nt, 0, nt, -4, 0, 19*
22. CN1C(=O)c2cc(NC(=O)C3CC3)ccc2OC[C@H]2O[C@H](CC(=O)NCCN3CCCC3)CC[C@@H]21
 : 2, 1, -4, -8, 0, -5
23. C[C@H]1CN([C@@H](C)CO)C(=O)c2cc(NC(=O)Cn3cnnn3)ccc2O[C@@H]1CN(C)Cc1ccccc1
 : -3, -1, -7, -2, 0, 0
24. C[C@@H]1CN([C@@H](C)CO)C(=O)c2cc(NC(=O)Cn3cnnn3)ccc2O[C@@H]1CN(C)Cc1ccc(Oc2ccccc2)cc1
 : 1, 6, 4, -20, 52*, 2
25. C[C@@H]1CN([C@H](C)CO)C(=O)c2cc(NC(=O)Cn3cnnn3)ccc2O[C@@H]1CN(C)Cc1ccc(Oc2ccccc2)cc1
 : 2, 5, 14, -16, 88*, -2
26. O=C(C[C@H]1CC[C@@H]2[C@H](COC[C@@H](O)CN2C(=O)Nc2ccc(F)cc2)O1)NCCc1ccccc1
 : -6, 0, 56, 0, 0, 9
27. Cc1ccc(-c2ccc([C@@H]3[C@H](CO)N4CCCCN(C(=O)Nc5ccccc5)C[C@@H]34)cc2)cc1
 : 2, 2, -7, nt, 0, nt
28. CO[C@@H]1CN(C)C(=O)c2cc(NC(=O)CC(F)(F)F)ccc2OC[C@H](C)N(S(=O)(=O)c2cn(C)cn2)C[C@@H]1C
 : nt, 0, nt, -51, 0, 16*
29. CO[C@H]1CN(C)C(=O)c2cc(NC(C)=O)ccc2OC[C@@H](C)N(S(=O)(=O)c2cn(C)cn2)C[C@@H]1C
 : 0, -1, nt, -18, 0, 11
30. CO[C@H]1CN(C)C(=O)c2cc(NC(=O)CC(F)(F)F)ccc2OC[C@H](C)N(C(C)=O)C[C@@H]1C
 : nt, -9, nt, -23, 0, 16*

# Entries listed so far that bear a hit mark in AF4-AF9 inh.
no.	Compound	AF4-AF9 inh	Yeast UUG start	RAD52 anneal inh	SIRT5 block
6	C[C@H]1CN([C@@H](C)CO)S(=O)(=O)c2ccc(/C=C/c3ccccc3)cc2O[C@H]1CN(C)CC1CC1	29*	4	8	4

# The listing continues:
# The line under a structure holds: RAD54 branch, AF4-AF9 inh, Yeast UUG start, RAD52 anneal inh, E-selectin induc, SIRT5 block
31. CO[C@H]1CN(C)C(=O)c2cc(NC(C)=O)ccc2OC[C@H](C)N(S(=O)(=O)c2cn(C)cn2)C[C@H]1C
 : -3, 2, nt, -8, 0, 24*
32. O=C(Nc1c2ccccc2nc2ccccc12)C(Cl)(Cl)Cl
 : 83*, nt, 1, nt, nt, nt
33. COC(=O)C[C@H]1C[C@@H]2c3cc(NC(=O)CC4CC4)ccc3O[C@@H]2[C@H](CO)O1
 : 3, -2, -13, -12, 0, -5
34. CCn1cnc2c(Nc3cc(F)cc(F)c3)nc(C#N)nc21
 : -5, -5, -9, -25, 0, 0
35. CCNc1nc(C#N)nc2c1ncn2-c1cc(F)cc(F)c1
 : -22, -33, -17, -227, 1, 25*
36. COc1ccc(NC(=O)CCCn2c(=S)[nH]c3ccccc3c2=O)cc1
 : -4, 5, -14, -2, 90*, -1
37. COc1ccc(NC(=O)CCn2c(=S)[nH]c3ccccc3c2=O)cc1
 : 15, -11, -27, -29, nt, -8
38. C=CCn1c(C)csc1=Nc1ccccc1C
 : -8, 27*, -13, -2, 0, 2
39. C=CCn1c(C)csc1=Nc1ccc(C(C)=O)cc1
 : nt, 4, nt, -11, nt, -9
40. CS(=O)(=O)Nc1ccc2c(c1)[C@@H]1C[C@@H](CC(=O)NCc3ccc(Cl)cc3)O[C@H](CO)[C@@H]1O2
 : 5, -2, nt, -13, 0, -7
41. CS(=O)(=O)N1[C@H](C#N)[C@H](c2ccccc2-c2ccc(F)cc2)[C@H]1CO
 : nt, 2, nt, -13, 0, 8

# High-throughput results from PubChem.
